What was measured:
PKC delta = PKC delta (Homo sapiens, UniProt Q05655); assay: PKC delta Assay (384-well time resolved fluorescence, IMAP TR-FRET); assay type: biochemical; settings: selectivity for PKC-theta over PKC-delta
His-PKC-theta = His-PKC-theta (Homo sapiens, UniProt Q04759); assay: PKC-theta Assay (384-well time resolved fluorescence, IMAP TR-FRET); assay type: biochemical; settings: read-out: Act. Level (IC50 in the PKC-theta Assay)

By UniProt entry, the sequences of proteins in these tests, tags left out.
UniProt Q05655, whole entry: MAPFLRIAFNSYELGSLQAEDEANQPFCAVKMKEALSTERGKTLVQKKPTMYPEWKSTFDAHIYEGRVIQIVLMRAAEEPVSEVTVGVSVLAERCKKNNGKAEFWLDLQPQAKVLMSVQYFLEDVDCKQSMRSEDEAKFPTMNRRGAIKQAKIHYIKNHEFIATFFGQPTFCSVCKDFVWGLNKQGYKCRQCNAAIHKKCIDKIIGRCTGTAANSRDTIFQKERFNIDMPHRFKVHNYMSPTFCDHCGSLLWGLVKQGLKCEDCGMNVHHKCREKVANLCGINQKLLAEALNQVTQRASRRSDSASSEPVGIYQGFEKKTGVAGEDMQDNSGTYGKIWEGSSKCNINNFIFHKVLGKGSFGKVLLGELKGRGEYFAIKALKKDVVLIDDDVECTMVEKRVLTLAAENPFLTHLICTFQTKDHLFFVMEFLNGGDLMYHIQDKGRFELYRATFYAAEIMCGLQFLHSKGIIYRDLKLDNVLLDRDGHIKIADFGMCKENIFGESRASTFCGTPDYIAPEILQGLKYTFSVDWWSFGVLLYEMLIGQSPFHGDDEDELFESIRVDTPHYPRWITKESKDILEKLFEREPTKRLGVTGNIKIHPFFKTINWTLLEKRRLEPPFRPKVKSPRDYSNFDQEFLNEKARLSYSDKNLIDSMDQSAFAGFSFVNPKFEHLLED
UniProt Q04759, whole entry: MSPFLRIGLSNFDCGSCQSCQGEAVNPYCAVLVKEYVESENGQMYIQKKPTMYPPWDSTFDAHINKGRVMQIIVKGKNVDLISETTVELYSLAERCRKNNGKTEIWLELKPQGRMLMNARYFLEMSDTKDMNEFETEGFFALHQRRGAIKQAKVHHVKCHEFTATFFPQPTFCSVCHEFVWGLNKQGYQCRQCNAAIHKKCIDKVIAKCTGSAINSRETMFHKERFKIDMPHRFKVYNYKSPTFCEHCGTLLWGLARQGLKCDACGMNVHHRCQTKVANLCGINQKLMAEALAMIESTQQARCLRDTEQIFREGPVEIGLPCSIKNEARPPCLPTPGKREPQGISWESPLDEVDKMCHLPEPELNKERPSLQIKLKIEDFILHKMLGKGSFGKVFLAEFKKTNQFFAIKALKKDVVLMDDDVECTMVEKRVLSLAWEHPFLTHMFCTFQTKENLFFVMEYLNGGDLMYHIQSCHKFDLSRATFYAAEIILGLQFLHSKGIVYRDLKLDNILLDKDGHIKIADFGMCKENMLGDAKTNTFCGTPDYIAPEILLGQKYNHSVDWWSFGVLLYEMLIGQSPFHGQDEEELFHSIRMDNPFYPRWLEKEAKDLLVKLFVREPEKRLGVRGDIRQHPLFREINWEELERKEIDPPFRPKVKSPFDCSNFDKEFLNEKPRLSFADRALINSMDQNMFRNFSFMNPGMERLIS

Compound: CC(F)(F)COc1ncncc1CNc1ncc(C#N)c(N[C@@H]2CC[C@](C)(O)C(C)(C)C2)n1
- Sel. Level (ratio of IC50 PKC-delta/IC50 PKC-theta) (PKC delta): E (selectivity (Sel. Level=ratio of IC50 PKC-delta/IC50 PKC-theta) of >100-fold (selectivity level E))
- IC50 (His-PKC-theta): < 0.1 µM

Compound: CC(F)(F)COc1ncncc1CNc1ncc(C#N)c(N[C@@H]2CC[C@@](C)(O)C(C)(C)C2)n1
- Sel. Level (ratio of IC50 PKC-delta/IC50 PKC-theta) (PKC delta): F (selectivity of between 20- and 100-fold (selectivity level F))
- IC50 (His-PKC-theta): 0.1 to 0.8 µM

— US9783505B2, “Substituted diaminopyrimidyl compounds, compositions thereof, and methods of treatment therewith” (Signal Pharmaceuticals, LLC, priority 2013, dated 2017)
